The target of the assay is T1, Arachidonate 5-lipoxygenase (Bos taurus, UniProt Q9BEG3).
T1 sequence (Q9BEG3 whole entry): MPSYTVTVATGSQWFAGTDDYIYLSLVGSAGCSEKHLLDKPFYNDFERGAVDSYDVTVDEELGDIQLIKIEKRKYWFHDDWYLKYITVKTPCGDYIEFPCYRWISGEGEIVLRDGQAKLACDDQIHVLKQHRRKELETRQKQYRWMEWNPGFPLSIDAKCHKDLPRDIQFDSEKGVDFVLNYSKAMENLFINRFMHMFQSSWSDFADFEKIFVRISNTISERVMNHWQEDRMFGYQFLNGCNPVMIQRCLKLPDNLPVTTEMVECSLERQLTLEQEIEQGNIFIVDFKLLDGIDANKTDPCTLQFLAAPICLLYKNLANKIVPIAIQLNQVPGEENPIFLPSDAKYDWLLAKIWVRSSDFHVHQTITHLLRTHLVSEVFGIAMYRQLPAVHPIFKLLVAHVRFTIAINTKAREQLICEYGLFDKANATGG
Briefly: Inhibitory activity against 5-lipoxygenase (inhibition of 5-HETE and LTB4 biosynthesis) in bovine polymorphonuclear leukocytes (PMNL). In kind it is cell-based.

Take `COc1cc(CCC(=O)C2c3cccc(O)c3C(=O)c3c(O)cccc32)cc(OC)c1OC`: it took 14 µM to reach half-maximal inhibition (IC50).

The values are drawn from ChEMBL document CHEMBL1126969, “Antipsoriatic anthrones with modulated redox properties. 1. Novel 10-substituted 1,8-dihydroxy-9(10H)-anthracenones as inhibitors of 5-lipoxygenase” (J Med Chem, 1993).
